{"source": "patent US20060046968A1", "about": "“Prodrug substituted benzoxazoles as estrogenic agents” (priority 2004, published 2006)", "key": {"Lewis rats": {"test_system": "Lewis rats", "assay": "Lewis rat adjuvant-induced arthritis, treatment protocol: tarsal joint histology (synovitis, Mankin)", "assay_type": "in vivo", "details": "50 mg/kg, tarsal joints", "protocol": "Treatment test procedure: Thirty rats are injected intradermally with 0.1 mL of Freund's Adjuvant-Complete at the base of the tail. The animals are randomized to four groups, each group containing six rats. Each day, the groups receive vehicle (50% DMSO (JT Baker, Phillipsburg, N.J.)/1× Dulbecco's phosphate saline (GibcoBRL, Grand Island, N.Y.)) or test compound (administered subcutaneously).\nAll rats began treatment on Day 8 after adjuvant injection."}, "[1]": {"test_system": "Sexually immature 129 SvE mice", "assay": "Mouse uterotrophic test procedure (Procedure 2)", "assay_type": "in vivo", "details": "compound 50 mg/kg s.c., days 22-25"}}, "note": "Several values for one entry are separate records, joined by “and”; a condition that tells them apart may be missing. Equal entries are not always repeated."}
{"smiles": "C=Cc1cc(O)cc2nc(-c3ccc(O)c(F)c3)oc12", "note": "[Example 24, 2-(3-FLUORO-4-HYDROXYPH ENYL)-7-VI NYL-1,3-BENZOXAZOL-5-OL]", "values": [{"measurement": "Synovial Structure (0-3), mean ± SD", "setting": "Lewis rats", "value": "1.42 ± 0.49"}]}
{"smiles": "C=CCc1cc(O)cc2nc(-c3ccc(O)c(F)c3)oc12", "note": "[Example 34]", "values": [{"measurement": "mean uterine weight ± SEM", "setting": "[1]", "value": "10.3 ± 0.7 mg and 10.3 ± 0.69 mg"}]}
